The source of these data is publication PMC8934631 (2022).

Test [1] deals with T1, MEF2A (1–92) (UniProt Q02078 1-92).
T1 chain: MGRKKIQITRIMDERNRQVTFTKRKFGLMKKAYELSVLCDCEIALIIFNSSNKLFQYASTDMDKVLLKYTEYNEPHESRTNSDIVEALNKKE
The experiment in a line: FP.

The target of test [2] is T2, MEF2D (1–95) (UniProt Q14814 1-95).
T2 chain: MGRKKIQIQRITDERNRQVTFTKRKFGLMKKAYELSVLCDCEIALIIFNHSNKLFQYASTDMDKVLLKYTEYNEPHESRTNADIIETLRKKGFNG
The experiment in a line: FP.

B1: F-pHDAC4 (aa 170–183, fluorescein-GSGEVKMKLQEFVLNKK-CONH2) (peptide)
peptide: GSGEVKMKLQEFVLNKK
modifications: fluorescein on the N-terminus (5(6)-carboxyfluorescein); C-terminal amide (CONH2)
Regarding B1, the Kd turned out to be 17 µM in test [1] and 16 µM in test [2].

The term Kd denotes the equilibrium constant for the complex coming apart. Lower therefore signals tighter binding.
